In experiment [1] the target is human insulin receptor (A-isoform) ectodomain (human). Briefly: radioligand binding.
The target of experiment [2] is human IGF1R ectodomain (Δβ mutant) (human) (UniProt P08069). In words: radioligand binding.
The target in experiment [3] is IGF1Rzip (IGF1R ectodomain construct with leucine zipper) (human) (UniProt P08069). Briefly: cryo-EM structure.

These results are taken from article PMC9637144.

As for “double chain LCDV1-VILP (Lymphocystis disease virus-1 viral insulin/IGF-1 like peptide)”, the IC50 in experiment [1] is greater than 1000 nM. On to human insulin (unlabeled) (ligand), for which, in experiment [1], the IC50 amounted to 0.5 nM.

The substance “single chain LCDV1-VILP (Lymphocystis disease virus-1 viral insulin/IGF-1 like peptide)” gave an IC50 in experiment [2] of 3.3 nM. In experiment [3], the stoichiometry N (scLCDV1-VILP per IGF1R ectodomain dimer) stood at 2.

As usually defined, the IC50 is the concentration at which inhibition is half-maximal. Read a low IC50 as greater potency.
